## Binding of CDR-mutated scFvs to a peptide of the spike HR2 region

From the AlphaSeq antibody data of Li et al. 2023 (doi:10.1038/s41467-023-39022-2), copy in the FLAb collection.

The target is the same throughout: PDVDLGDISGINAS, from the HR2 region of SARS-CoV-2 spike.

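The starting antibody came from a phage panning campaign against this peptide. Designed CDR sequences, proposed from the first random library and measured here. Group labels follow the data file (Ctrl: baseline library sampled from a position-specific scoring matrix, with some repeated check sequences; En: ensemble of fine-tuned language models; GP: Gaussian process model; HC: hill climbing; Gen: genetic algorithm; Gibbs: Gibbs sampling; a sequence that several methods proposed may carry one label only). The assay is AlphaSeq: two haploid yeast populations carry antibody and antigen on their surface. Binding brings cells together so that they mate, and sequencing counts the barcode pairs among the diploids. A regression on co-assayed BCL2-family reference pairs converts the normalised counts of each replicate to an apparent Kd. Each pool was mated in six replicate cultures.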

Ab-14 is the parent antibody, in scFv form: VH, then a (GGGGS)3 linker, then VL. The heavy chain is unchanged in all variants.
VH: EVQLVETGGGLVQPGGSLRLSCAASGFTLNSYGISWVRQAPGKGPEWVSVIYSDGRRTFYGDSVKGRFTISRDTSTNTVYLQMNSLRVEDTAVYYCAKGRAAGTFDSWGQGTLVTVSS
VL: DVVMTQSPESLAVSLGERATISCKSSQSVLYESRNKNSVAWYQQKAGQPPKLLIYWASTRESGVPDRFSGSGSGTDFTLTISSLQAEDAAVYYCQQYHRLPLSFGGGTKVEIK

Variants are written as CDR1, CDR2 and CDR3 of the light chain (limits as in the source). Parent: KSSQSVLYESRNKNSVA, WASTRES, QQYHRLPLS. Numbers give log10(Kd / nM), so 0 is 1 nM and 3 is 1 µM. Smaller is tighter. The mean shown is taken over the replicates in which the pair was detected. "nd" marks a missing value. The strain was present, yet no cells mated with the target were sequenced in any replicate, which points to weak or no binding. In the paper, a design with two or fewer of six values counts as a poor binder. Empty control strains, which show no peptide, gave a signal in 4% of pairings with all light chain designs; the median was 2.64 and 95% of these signals were weaker than 1.59. No background was subtracted. The control count says in how many pairings with the empty strains this scFv gave a signal. Of ten entries with the parent sequence, four were seen in most replicates (averages 0.34 to 2.37), three in one and three in none, so single entries are noisy. A sequence measured in both rounds can read differently, since the two assays cover different ranges.

Result 0.76 (6 of 6 replicates; controls 1 of 18), variant KLQGSHLYESRNKNSVA, HASQRES, QCYHRLPLS [GP_Gibbs].
Result 0.92 (6 of 6 replicates; controls 0 of 18), variant MISQVMNTLTREGNNVA, DLTEREK, QQYFRLPLS [En_Gen].
Result 0.96 (4 of 6 replicates; controls 0 of 18), variant KLTHPTDSWLNHVSSIA, DANISVE, QQYYQLPLT [En_Gibbs].
Result -0.19 (6 of 6 replicates; controls 1 of 18), variant KSMQSVPGEDRNKNSVA, EASTRCS, QQYHRLPLS [GP_Gibbs].
Result 0.34 (6 of 6 replicates; controls 0 of 18), variant TIGQSVHETSRIKNSVA, HASTRED, QQYDRLPLS [En_HC].
Result 0.85 (6 of 6 replicates; controls 0 of 18), variant TIGQTLMQGVRNRSNVA, EVSERLN, QQYDRLPLI [En_Gen].
Result 0.26 (6 of 6 replicates; controls 0 of 18), variant KISQMARVGSTHGNSIA, EEATRCD, QQYHRLPLA [En_Gen].
Result 0.10 (6 of 6 replicates; controls 0 of 18), variant KLQQQNLYESRNKNSVA, SASTREE, QQYHRLPLS [GP_HC].
Result 0.41 (6 of 6 replicates; controls 1 of 18), variant KIQQSEQYESRNKNSVA, NASDRQS, QQYHRLPLS [GP_Gibbs].
Result 2.27 (2 of 6 replicates; controls 3 of 18), variant MISQLMNLGQFAINSVA, QAEIRNQ, QQYDRLPLG [En_Gen].
Result 0.61 (6 of 6 replicates; controls 1 of 18), variant SFHEINMEGLATNANVA, NASQLFE, QSYFRLPLQ [En_Gibbs].
Result nd (0 of 6 replicates; controls 0 of 18), variant IVSQLMLWGWQAKNSIA, EAQTRLN, QQYDRLPLF [En_Gen].
Result 0.76 (6 of 6 replicates; controls 0 of 18), variant TISQMTSLFSQTINNVA, EVSTREQ, QQYDRLPLA [En_Gen].
Result 0.60 (6 of 6 replicates; controls 0 of 18), variant HLSGSVLYESRNKNSVA, NASTRES, QQYHRLPLS [GP_HC].
Result 0.02 (6 of 6 replicates; controls 1 of 18), variant TLTQVQGMESHNTNSVA, DLSTRGS, QQYHRLPLS [En_HC].
Result 1.59 (3 of 6 replicates; controls 0 of 18), variant QINMEMYHDLDDAQNVA, DAMTEIK, QQYNRLPLS [En_Gibbs].
Result 0.95 (6 of 6 replicates; controls 0 of 18), variant KLSMSYRYEMENKNSIA, ELVTRMS, QQYHRLPLS [En_HC].
Result -0.13 (6 of 6 replicates; controls 2 of 18), variant KSSQSVPYESRNKNSVA, EASTRCS, QQYHRLPLS [GP_Gen].
Result 0.95 (6 of 6 replicates; controls 0 of 18), variant QVQAFHEHEKDQTQAMA, EASMRDA, QQYERLPLS [En_Gibbs].
Result 2.24 (4 of 6 replicates; controls 3 of 18), variant KISESMHFAQFNKQSIA, EVSVRSN, QSYNRLPLS [En_Gen].
Result 0.53 (6 of 6 replicates; controls 2 of 18), variant KSSQSDLYEDRVKNSVA, GAQTRES, QQYHRLPLS [GP_HC].
Result 1.36 (6 of 6 replicates; controls 1 of 18), variant MMSQVTGYGTRMRNNVA, QTSTREA, QQYDRLPLI [En_Gen].
Result -0.03 (6 of 6 replicates; controls 0 of 18), variant KLEQSVLYESRNKNSVA, NASTRMS, QQYHRLPLS [GP_Gen].
Result -0.27 (6 of 6 replicates; controls 1 of 18), variant FVSQSQLYESRNKNSVA, NGSTRES, QDYHRLPLS [GP_Gibbs].
Result 0.01 (6 of 6 replicates; controls 0 of 18), variant KSSISYLYESANKNSVA, NASTRES, QQYHRLPLS [GP_HC].
Result 0.16 (6 of 6 replicates; controls 1 of 18), variant KSMQSVLYESRNKNSVA, GASTREE, QQYHRLPLS [Ctrl].
Result 0.28 (6 of 6 replicates; controls 2 of 18), variant KYSQSQLYEDRNVNSVA, NASQRMS, QQYHRLPLS [GP_Gibbs].
Result 0.25 (6 of 6 replicates; controls 0 of 18), variant KLQSLEQYESRWKNNVA, SASTRES, QQYHRLPLS [GP_Gibbs].
Result 0.57 (6 of 6 replicates; controls 0 of 18), variant KLSQQVLYESRNKNSVA, WASTRES, QQYHRLPLS [Ctrl].
Result -0.12 (6 of 6 replicates; controls 2 of 18), variant KLSQSVLYESRNPNSVA, NASQRLS, QQYHRLPLS [GP_Gen].
Result 2.58 (3 of 6 replicates; controls 1 of 18), variant KSSQSALPEGRNKNSVA, WASTRES, QIYHRLPLE [Ctrl].